The nature of the data set: Plasma catechin after intraduodenal catechin/PEP (HPLC). In kind it is in vivo. The settings on record: rats, 300 mg/kg catechin. As for the experimental part: The abdominal muscle was sutured under the skin. […] Four rats were in each treatment group. […]
Catechin solution was mixed with a solution of methylcellulose, and this mixture was added to solutions of glucosamine and sucrose palmitate in water before administration to rats. […] The contents of catechin/PEP comprised and individual dosage of 300 mg/kg catechin, 400 mg/kg sucrose palmitate, glucosamine in a 1:4 mole ratio of catechin to glucosamine, and methylcellulose in a 1:0.5 mole ratio of catechin to methylcellulose. […] Plasma was analyzed by HPLC, and bioavailability was calculated.

Data on one substance can be found in patent publication US7666446B2, “Oral formulation for delivery of poorly absorbed drugs” (ProCarrier, Inc., priority 2004, dated 2010).

Take Catechin [Catechin control]: the “Concentration (catechin in plasma)” value (0 min) came to 1.17 µg/mL; the “Concentration (catechin in plasma)” value (15 min) was found to be 4.48 µg/mL; the “Concentration (catechin in plasma)” value (30 min) stood at 7.83 µg/mL; the “Concentration (catechin in plasma)” value (60 min) stood at 10.72 µg/mL; the “Concentration (catechin in plasma)” value (90 min) is 14.6 µg/mL; the “Concentration (catechin in plasma)” value (120 min) came to 17.53 µg/mL. The “Concentration (catechin in plasma)” value (180 min) was found to be 18.74 µg/mL.
